How the values were obtained:
MER = molecular target: T1, MER (Homo sapiens, UniProt Q12866); experiment: MER enzyme inhibition assay (in-house Kinase-Glo); assay type: biochemical
T1 construct: A purified kinase (MER or AXL) was incubated with a compound or DMSO
T1 sequence (Q12866 21-999): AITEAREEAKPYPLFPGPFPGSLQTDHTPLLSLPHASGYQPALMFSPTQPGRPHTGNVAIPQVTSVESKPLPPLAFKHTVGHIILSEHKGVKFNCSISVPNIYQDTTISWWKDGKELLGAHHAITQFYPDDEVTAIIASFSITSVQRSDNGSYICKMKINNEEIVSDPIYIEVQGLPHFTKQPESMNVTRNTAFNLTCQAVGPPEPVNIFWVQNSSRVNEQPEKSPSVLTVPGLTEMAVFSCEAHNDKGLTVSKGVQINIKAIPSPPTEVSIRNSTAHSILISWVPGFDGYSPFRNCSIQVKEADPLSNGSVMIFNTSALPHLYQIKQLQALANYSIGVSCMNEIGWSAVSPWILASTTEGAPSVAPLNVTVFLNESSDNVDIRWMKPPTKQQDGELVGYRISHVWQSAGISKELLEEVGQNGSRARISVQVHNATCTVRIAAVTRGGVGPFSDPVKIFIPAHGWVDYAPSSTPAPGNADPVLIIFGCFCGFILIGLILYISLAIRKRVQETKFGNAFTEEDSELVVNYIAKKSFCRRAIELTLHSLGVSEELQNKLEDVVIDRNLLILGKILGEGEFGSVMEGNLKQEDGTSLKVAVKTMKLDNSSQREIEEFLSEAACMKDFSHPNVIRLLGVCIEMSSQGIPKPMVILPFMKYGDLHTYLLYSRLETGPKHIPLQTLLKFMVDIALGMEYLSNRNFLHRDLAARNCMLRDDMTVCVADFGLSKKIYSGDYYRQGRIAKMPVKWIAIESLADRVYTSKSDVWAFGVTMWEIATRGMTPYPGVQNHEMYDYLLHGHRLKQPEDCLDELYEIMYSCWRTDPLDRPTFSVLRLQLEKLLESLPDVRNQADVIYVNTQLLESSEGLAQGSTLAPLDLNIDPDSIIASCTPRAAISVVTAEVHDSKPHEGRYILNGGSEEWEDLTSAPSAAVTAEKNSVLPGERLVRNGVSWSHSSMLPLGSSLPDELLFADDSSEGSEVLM

[1] = test system: immune cells in tumor and spleen of MC38 tumor-bearing mice; experiment: Immunophenotyping by flow cytometry; assay type: in vivo; settings: 50 mg/kg orally BID, FOTO, 2 weeks
Description: Tumor and spleen tissues from the control and treated animals were harvested 2 h after the last dose (day 11). […] tissues were carefully removed from the tumors followed by digestion with 0.1% collagenase III in DMEM medium for 30 min at 37 °C with agitation every 10 min. The digestion was terminated by adding 10% FBS containing PBS. The single-cell suspension was filtered through a 40 μm filter after red blood cell lysis. Aliquots of the cell suspension were preincubated with the mouse Fc receptor blocker for 10 min before staining with appropriate antimouse antibody conjugate for Cd45, Cd3, Cd4, Cd8, Cd11b, Cd86, F4/80, AXL, and MER (all antibody conjugates from BioLegend) at 4 °C for 30 min followed by two washes in 1% BSA containing buffer and analyzed by flow cytometry to quantify the accumulation of infiltrating immune cells into the tumor. For analysis of Cd206, the cells were fixed using the Cyto X/Cytoperm kit (BD Biosciences) after surface marker staining and then stained with antimouse Cd206 antibody.

Ba/F3-MER cells = experiment: Cell viability assay (MTS); assay type: cell-based; settings: 72 h, read-out: Ba/F3-MER IC50

SMILES | IC50 (MER) | percentage of intratumoral M1-like macrophages [1] | IC50 (Ba/F3-MER cells)
Nc1nc(Nc2ccc3c(c2)CC[C@@H](N2CCCC2)CC3)nn1-c1cc2c(nn1)-c1ccccc1CCC2 [Compound 3, Bemcentinib, reference compound] | 636 nM | – | –
Cn1cc(-c2oc3ncnc(Oc4ccc(NC(=O)c5cccn(-c6ccc(F)cc6)c5=O)cc4)c3c2-c2cccc(N)c2)cn1 [Compound 22, N-(4-{[5-(3-Aminophenyl)-6-(1-methyl-1H-pyrazol-4-yl)furo[2,3-d]pyrimidin-4-yl]oxy}phenyl)-1-(4-fluorophenyl)-2-oxo-1,2-dihydropyridine-3-carboxamide] | – | without altering | 4.5 nM
CN(C)Cc1ccc(-c2c(-c3cnn(C)c3)oc3ncnc(Oc4ccc(NC(=O)c5cccn(-c6ccc(F)cc6)c5=O)cc4)c23)cc1 [Compound 39, N-{4-[(5-{4-[(Dimethylamino)methyl]phenyl}-6-(1-methyl-1H-pyrazol-4-yl)furo[2,3-d]pyrimidin-4-yl)oxy]phenyl}-1-(4-fluorophenyl)-2-oxo-1,2-dihydropyridine-3-carboxamide] | – | – | 1.6 nM
